Consider one compound from ChEMBL document CHEMBL1141509, “Development of pyridopyrimidines as potent Akt1/2 inhibitors” (Bioorg Med Chem Lett, 2008).

Amino acid sequences for entries named in this document (tags omitted). A change or cut given only in a name is not applied to a line headed by its entry.
UniProt P31749: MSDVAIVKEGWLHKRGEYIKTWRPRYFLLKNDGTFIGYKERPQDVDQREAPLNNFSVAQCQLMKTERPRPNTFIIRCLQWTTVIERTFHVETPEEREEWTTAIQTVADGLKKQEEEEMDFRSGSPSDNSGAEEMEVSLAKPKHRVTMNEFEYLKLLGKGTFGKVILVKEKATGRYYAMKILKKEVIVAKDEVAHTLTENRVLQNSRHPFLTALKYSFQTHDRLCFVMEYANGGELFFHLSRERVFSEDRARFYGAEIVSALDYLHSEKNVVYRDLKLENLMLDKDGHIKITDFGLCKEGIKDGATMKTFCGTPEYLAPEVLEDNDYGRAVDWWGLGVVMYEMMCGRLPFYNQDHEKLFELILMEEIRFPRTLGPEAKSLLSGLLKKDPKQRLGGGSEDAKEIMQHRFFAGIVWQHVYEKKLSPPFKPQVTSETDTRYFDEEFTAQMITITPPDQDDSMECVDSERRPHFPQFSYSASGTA

The target in experiment [1] is T1, RAC-alpha serine/threonine-protein kinase (Homo sapiens, UniProt P31749). Description: Inhibition of Akt1.
Experiment [2] addresses T1, RAC-alpha serine/threonine-protein kinase. Description: Inhibition of human Akt1 in human C33A cells by immunoprecipitation kinase assay. In kind it is cell-based, C-33-A.

With `Nc1ncnc2nc(-c3ccc(CN4CCC(c5nc6ccc(F)cc6[nH]5)CC4)cc3)c(-c3ccccc3)cc12`, the IC50 in experiment [1] amounted to 0.018 µM; in experiment [2], 0.277 µM.

In general, IC50 refers to the midpoint of a concentration-inhibition curve.
